Measured values from PubChem BioAssay AID425 (Sanford-Burnham Center for Chemical Genomics, 2006).
This is a selection; strong and weak results do not stand in their true shares. Entries with a potency or affinity are not part of this list. Activity calls are given as the source filed them. No stated cut-off is given here; in the data, active means inhibition above about 50%; inactive means the rest.

By UniProt entry, the sequences of proteins in these tests, tags left out.
UniProt Q64346, whole entry: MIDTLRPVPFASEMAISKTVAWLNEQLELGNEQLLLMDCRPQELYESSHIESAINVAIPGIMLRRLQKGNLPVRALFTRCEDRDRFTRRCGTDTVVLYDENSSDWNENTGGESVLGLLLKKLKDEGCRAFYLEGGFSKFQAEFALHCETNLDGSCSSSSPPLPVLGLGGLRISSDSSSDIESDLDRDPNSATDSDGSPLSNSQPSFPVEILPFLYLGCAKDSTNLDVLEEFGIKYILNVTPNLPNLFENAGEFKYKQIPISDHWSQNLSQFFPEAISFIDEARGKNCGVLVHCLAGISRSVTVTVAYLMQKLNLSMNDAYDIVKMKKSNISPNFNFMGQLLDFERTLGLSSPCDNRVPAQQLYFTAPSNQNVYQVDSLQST

target: Dual specificity protein phosphatase 6 (Rattus norvegicus) (UniProt Q64346); assay: MKP-3 phosphatase inhibitors, primary screen, biochemical, rat enzyme, in vitro (AID 425); settings: recombinant MKP-3 phosphatase activity, fluorescence; at 20 µM; active compounds read high;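 further: plate controls were vehicle for no effect and reference inhibitor for full effect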

Row | Structure (SMILES) | inhibition
1 | COc1ccccc1OP(C)(=O)Nc1ccc(C)cc1 (stereo unspecified) | inactive: -3.9%
